According to ChEMBL document CHEMBL6078650, “A Phenotypic High-Throughput Screen Identifies Small Molecule Modulators of Endogenous RGS10 in BV-2 Cells” (J Med Chem, 2024):

Tested on: BV-2
Test: Reversal of IFNgamma-induced RGS10 silencing in mouse single close BV-2 cells assessed as RGS10 protein level by measuring luminescence signal measured after 24 hrs by Nano-Glo HiBit Lytic detection assay
Assay type: functional, cell-based

**Q.** Which Activity does the source give for O=C(CN1C(=O)NC(c2ccc(Cl)cc2)C2=C1COC2=O)Nc1ccc(F)c(F)c1 (stereo not given) here?
**A.** Dose-dependent-effect

**Q.** For Cc1cc(C)c2c(=O)cc(CN(Cc3ccccc3)Cc3ccco3)[nH]c2c1, which Activity is on record?
**A.** Dose-dependent-effect

**Q.** O=C(CN1C(=O)NC(c2ccc(Cl)cc2)C2=C1COC2=O)Nc1cc(F)cc(F)c1 (stereo not given) was tested. Which Activity did it give?
**A.** Dose-dependent-effect

**Q.** How did the Activity turn out when CCc1cc(-c2csc(S(=O)(=O)Nc3ccc(C)cc3Br)c2)on1 was run?
**A.** Dose-dependent-effect

**Q.** For Cc1oc(-c2ccc(Cl)cc2)nc1CN1CCCC(C(=O)N2CCN(C(=O)c3ccco3)CC2)C1 (stereo not given), which Activity is on record?
**A.** Dose-dependent-effect
